Laboratory results taken from ChEMBL document CHEMBL4406833 (Eur J Med Chem, 2019).

Chains of the proteins cited; added tags and fusions are not shown.
UniProt P14902, whole entry, looked up: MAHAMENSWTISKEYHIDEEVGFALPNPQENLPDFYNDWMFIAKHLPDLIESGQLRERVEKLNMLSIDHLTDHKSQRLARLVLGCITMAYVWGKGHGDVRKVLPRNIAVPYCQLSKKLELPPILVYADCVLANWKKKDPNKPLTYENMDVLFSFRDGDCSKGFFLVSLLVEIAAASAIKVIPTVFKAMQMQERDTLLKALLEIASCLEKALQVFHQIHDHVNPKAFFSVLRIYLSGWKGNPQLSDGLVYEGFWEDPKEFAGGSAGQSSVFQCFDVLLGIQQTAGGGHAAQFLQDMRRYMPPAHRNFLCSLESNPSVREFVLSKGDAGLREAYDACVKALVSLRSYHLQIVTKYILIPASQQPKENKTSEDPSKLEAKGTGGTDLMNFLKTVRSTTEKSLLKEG
UniProt P48775, whole entry, looked up: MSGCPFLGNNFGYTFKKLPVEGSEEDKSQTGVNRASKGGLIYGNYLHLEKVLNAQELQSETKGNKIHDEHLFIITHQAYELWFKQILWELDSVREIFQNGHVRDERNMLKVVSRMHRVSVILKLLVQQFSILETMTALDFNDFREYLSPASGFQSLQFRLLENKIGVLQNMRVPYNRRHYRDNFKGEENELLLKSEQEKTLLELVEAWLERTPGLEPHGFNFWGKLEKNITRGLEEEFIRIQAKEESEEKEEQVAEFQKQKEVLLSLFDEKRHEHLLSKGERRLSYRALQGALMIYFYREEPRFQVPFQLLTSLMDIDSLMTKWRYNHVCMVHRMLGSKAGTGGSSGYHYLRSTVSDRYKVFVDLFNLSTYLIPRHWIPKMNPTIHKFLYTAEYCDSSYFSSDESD
UniProt Q6ZQW0, whole entry, looked up: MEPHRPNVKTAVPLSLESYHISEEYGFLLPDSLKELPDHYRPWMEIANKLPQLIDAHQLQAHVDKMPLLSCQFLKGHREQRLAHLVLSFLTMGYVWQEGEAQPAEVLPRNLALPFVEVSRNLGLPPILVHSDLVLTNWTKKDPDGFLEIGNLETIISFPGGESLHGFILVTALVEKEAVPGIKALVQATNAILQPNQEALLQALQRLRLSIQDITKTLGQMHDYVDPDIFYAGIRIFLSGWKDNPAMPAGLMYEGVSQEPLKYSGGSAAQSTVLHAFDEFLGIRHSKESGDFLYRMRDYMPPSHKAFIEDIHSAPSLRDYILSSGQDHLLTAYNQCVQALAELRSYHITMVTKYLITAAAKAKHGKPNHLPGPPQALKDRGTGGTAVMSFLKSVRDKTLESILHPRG

Key:
[1] = biological target: Indoleamine 2,3-dioxygenase 1 (Homo sapiens, UniProt P14902); details: hela
[2] = biological target: Tryptophan 2,3-dioxygenase (Homo sapiens, UniProt P48775)
[3] = biological target: Indoleamine 2,3-dioxygenase 2 (Homo sapiens, UniProt Q6ZQW0)

Compound	IC50 [1]	IC50 [2]	IC50 [3]
CCCP(=O)(NCCCNc1nonc1/C(=N/O)Nc1ccc(F)c(Br)c1)OCC (stereo unspecified)	143 nM	–	–
COP(C)(=O)NCCCCCNc1nonc1/C(=N/O)Nc1ccc(F)c(Br)c1 (stereo unspecified)	26 nM	–	–
CCCP(=O)(OCC)N1CCC(Nc2nonc2/C(=N/O)Nc2ccc(F)c(Br)c2)CC1 (stereo unspecified)	> 200 nM	–	–
CCOP(C)(=O)N1CCC(Nc2nonc2/C(=N/O)Nc2ccc(F)c(Br)c2)CC1 (stereo unspecified)	> 200 nM	–	–
COP(C)(=O)NCCNc1nonc1/C(=N/O)Nc1cccc(Br)c1 (stereo unspecified)	10.5 nM	–	–
COP(C)(=O)NCCNc1nonc1/C(=N/O)Nc1cccc(C#N)c1 (stereo unspecified)	36 nM	–	–
COP(C)(=O)NCCNc1nonc1/C(=N/O)Nc1ccc(F)c(C#N)c1 (stereo unspecified)	24 nM	–	–
COP(C)(=O)NCCCNc1nonc1/C(=N/O)Nc1ccc(F)c(Cl)c1 (stereo unspecified)	35 nM	–	–
COP(C)(=O)N1CCC(Nc2nonc2/C(=N/O)Nc2ccc(F)c(Br)c2)C1 (stereo unspecified)	104 nM	–	–
COP(C)(=O)NCCCCNc1nonc1/C(=N/O)Nc1ccc(F)c(Br)c1 (stereo unspecified)	18.9 nM	3320 nM	590 nM
COP(C)(=O)NCCCNc1nonc1/C(=N/O)Nc1cccc(Br)c1 (stereo unspecified)	24 nM	–	–
CCOP(=O)(CC)NCCNc1nonc1/C(=N/O)Nc1cccc(Br)c1 (stereo unspecified)	14.6 nM	–	–
COP(C)(=O)NCCNc1nonc1/C(=N/O)Nc1cccc(C)c1 (stereo unspecified)	94 nM	–	–
CCOP(=O)(CC)NCCCNc1nonc1/C(=N/O)Nc1ccc(F)c(Br)c1 (stereo unspecified)	44 nM	–	–
COP(C)(=O)NCCNc1nonc1/C(=N/O)Nc1ccc(F)c(Br)c1 (stereo unspecified)	10.1 nM	3960 nM	490 nM
COP(C)(=O)NCCNc1nonc1/C(=N/O)Nc1ccc(F)c(C)c1 (stereo unspecified)	23 nM	–	–
CCCP(=O)(NCCNc1nonc1/C(=N/O)Nc1ccc(F)c(Br)c1)OCC (stereo unspecified)	37.2 nM	–	–
COP(C)(=O)NCCNc1nonc1/C(=N/O)Nc1ccc(F)c(Cl)c1 (stereo unspecified)	17.9 nM	–	–
COP(C)(=O)N1CCN(c2nonc2/C(=N/O)Nc2ccc(F)c(Br)c2)CC1 (stereo unspecified)	> 1000 nM	–	–
COP(C)(=O)NCCNc1nonc1/C(=N/O)Nc1ccc(F)cc1 (stereo unspecified)	850 nM	–	–
CCOP(C)(=O)NCCNc1nonc1/C(=N/O)Nc1ccc(F)c(Br)c1 (stereo unspecified)	19.1 nM	–	–
COP(C)(=O)NCCNc1nonc1/C(=N/O)Nc1cccc(C(F)(F)F)c1 (stereo unspecified)	21 nM	–	–
CCOP(=O)(CC)N1CCC(Nc2nonc2/C(=N/O)Nc2ccc(F)c(Br)c2)CC1 (stereo unspecified)	> 200 nM	–	–
COP(C)(=O)NCCNc1nonc1/C(=N/O)Nc1ccc(F)c(C(F)(F)F)c1 (stereo unspecified)	17.1 nM	–	–
COP(C)(=O)NC1CCCN(c2nonc2/C(=N/O)Nc2ccc(F)c(Br)c2)C1 (stereo unspecified)	> 1000 nM	–	–
CC(C)OP(C)(=O)NCCNc1nonc1/C(=N/O)Nc1ccc(F)c(Br)c1 (stereo unspecified)	25 nM	–	–
COP(C)(=O)NCCNc1nonc1/C(=N/O)Nc1cccc(Cl)c1 (stereo unspecified)	14.4 nM	–	–
CCOP(=O)(CC)NCCNc1nonc1/C(=N/O)Nc1ccc(F)c(Br)c1 (stereo unspecified)	20.8 nM	2540 nM	280 nM
COP(C)(=O)N1CCCC(Nc2nonc2/C(=N/O)Nc2ccc(F)c(Br)c2)C1 (stereo unspecified)	148 nM	–	–
COP(C)(=O)NC1CCN(c2nonc2/C(=N/O)Nc2ccc(F)c(Br)c2)CC1 (stereo unspecified)	> 1000 nM	–	–
